Values quoted from earlier work as cited in patent publication US10329542B2, “HBV RNAse H purification and enzyme inhibitors” (Saint Louis University, priority 2012, dated 2019).

Test system: HBV
Settings: human, in vivo; cited from earlier work

**Q.** With “Interferon α: FDA approved drug to treat chronic HBV” as the substance, how does the “Patients with sustained clinical improvement” value read?
**A.** 20-30%
